Laboratory results from patent publication US11964973B2 (priority 2019, dated 2024).

The chains behind the UniProt entries cited, without tags or fusion partners. Where a name states a change or a piece, a line headed by the entry shows the natural chain unless it says otherwise.
UniProt Q13574: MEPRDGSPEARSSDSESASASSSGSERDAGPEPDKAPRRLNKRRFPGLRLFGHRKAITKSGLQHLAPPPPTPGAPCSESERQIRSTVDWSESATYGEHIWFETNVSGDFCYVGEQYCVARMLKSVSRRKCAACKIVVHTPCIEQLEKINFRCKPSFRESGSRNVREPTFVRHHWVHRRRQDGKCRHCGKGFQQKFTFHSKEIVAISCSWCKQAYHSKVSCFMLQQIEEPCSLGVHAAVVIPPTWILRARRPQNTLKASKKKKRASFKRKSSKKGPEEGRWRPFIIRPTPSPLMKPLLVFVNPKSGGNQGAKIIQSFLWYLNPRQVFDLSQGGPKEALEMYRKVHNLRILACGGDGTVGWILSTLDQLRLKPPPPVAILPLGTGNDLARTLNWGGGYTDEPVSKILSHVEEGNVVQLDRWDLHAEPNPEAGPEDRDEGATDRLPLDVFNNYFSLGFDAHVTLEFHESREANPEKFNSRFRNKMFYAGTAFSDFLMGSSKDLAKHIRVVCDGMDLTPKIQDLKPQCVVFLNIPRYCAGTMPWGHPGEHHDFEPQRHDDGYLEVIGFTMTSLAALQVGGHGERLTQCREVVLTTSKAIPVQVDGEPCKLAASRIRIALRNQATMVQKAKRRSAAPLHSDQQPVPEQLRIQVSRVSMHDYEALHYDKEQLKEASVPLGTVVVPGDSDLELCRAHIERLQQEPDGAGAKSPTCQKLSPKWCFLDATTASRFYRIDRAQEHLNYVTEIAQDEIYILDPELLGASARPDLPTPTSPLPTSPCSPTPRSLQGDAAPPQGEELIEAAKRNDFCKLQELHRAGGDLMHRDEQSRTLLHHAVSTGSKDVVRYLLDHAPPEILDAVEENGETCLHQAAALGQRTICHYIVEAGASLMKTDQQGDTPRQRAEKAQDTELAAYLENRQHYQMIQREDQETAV

Biological target: human DGKζ (Homo sapiens (Human), UniProt Q13574)
Assay: biochemical
Details: DGKζ LIPGLO IC50

`C[C@@H]1CN(c2cc(=O)n(C)c3ccc(C#N)nc23)CC[C@H]1Oc1c(F)cccc1F` [Example 125, 8-((3R,4R)-4-(2,6-difluorophenoxy)-3-methylpiperidin-1-yl)-5-methyl-6-oxo-5,6-dihydro-1,5-naphthyridine-2-carbonitrile] was tested, and the IC50 was 17 µM.
